Read-outs that look alike come from different tables or passages of the source.
Type: physicochemical
Protocol: Val^8-GLP-1(7-37)OH (1 gram) lyophilized powder was dissolved in 25 mM ammonium bicarbonate, pH 8.0 (100 ml). The solution was stirred with a TEFLON stir bar at about 200 rpm at 21° C. (ambient temperature) for 16 hours. At varying times, usually within 30 minutes, the solution became hazy. On continued stirring, the haze became visibly more dense. The kinetics of the turbidity were measured by rate of formation of turbidity, i.e. absorbance at 340 nm. The precipitated protein was harvested either by filtration, e.g. Whatman 1 filter disc, or centrifugation. The supernatant was assayed for protein content either by Biuret Colorimetric Assay obtained from Pierce (Rockford, Ill.) or UV absorbance at 280 nm. By either method, the protein precipitate constituted in excess of 90% of the starting material, i.e. there was less than 10% of the protein remaining in the supernatant fraction. The collected precipitate was dried in vacuo, i.e. in a lyophilizer. The resultant precipitated (0.96 grams) material was soluble in 20 mM phosphate at pH 7.2 at less than 0.01 mg/ml. Solubility was tested by suspension of the solid in the buffer, adjustment of pH, if necessary, and filtration through a 0.2 micron filter. The protein content of the filtrate was tested by either Biuret Colorimetric Assay, UV absorbance at 280 nm, or by high pressure liquid chromatography analysis (HPLC) analysis. […]

With `CC[C@H](C)[C@H](NC(=O)[C@H](Cc1ccccc1)NC(=O)[C@H](CCC(=O)O)NC(=O)[C@H](CCCNC(=N)N)NC(=O)[C@H](C)NC(=O)[C@H](C)NC(=O)[C@H](CCC(N)=O)NC(=O)CNC(=O)[C@H](CCC(=O)O)NC(=O)[C@H](CC(C)C)NC(=O)[C@H](Cc1ccc(O)cc1)NC(=O)[C@H](CO)NC(=O)[C@H](CO)NC(=O)[C@@H](NC(=O)[C@H](CC(=O)O)NC(=O)[C@H](CO)NC(=O)[C@@H](NC(=O)[C@H](Cc1ccccc1)NC(=O)[C@@H](NC(=O)CNC(=O)[C@H](CCC(=O)O)NC(=O)[C@H](C)NC(=O)CCc1c[nH]cn1)[C@@H](C)O)[C@@H](C)O)C(C)C)C(=O)N[C@@H](C)C(=O)N[C@@H](Cc1c[nH]c2ccccc12)C(=O)N[C@@H](CC(C)C)C(=O)N[C@H](C(=O)N[C@@H](CCCCN)C(=O)NCC(=O)N[C@@H](CCCNC(=N)N)C(=O)NCC(=O)O)C(C)C` [isopropylimidazole^7-arginine^26-GLP-1(8-37)OH] the solubility (solubility) was < 100 µg/mL and the solubility (solubility (usually)) was < 50 µg/mL.

— US8455433B2, “Process for solubilizing glucagon-like peptide 1 compounds” (Eli Lilly and Company, priority 2000, dated 2013)
